Here are results for 28 compounds from patent US12152019B2, “Arylalkyl pyrazole compounds as indoleamine 2,3-dioxygenase inhibitors” (Merck Sharp & Dohme LLC, priority 2018, dated 2024).

Amino acid sequences for entries named in this document (tags omitted).
UniProt P14902, whole entry: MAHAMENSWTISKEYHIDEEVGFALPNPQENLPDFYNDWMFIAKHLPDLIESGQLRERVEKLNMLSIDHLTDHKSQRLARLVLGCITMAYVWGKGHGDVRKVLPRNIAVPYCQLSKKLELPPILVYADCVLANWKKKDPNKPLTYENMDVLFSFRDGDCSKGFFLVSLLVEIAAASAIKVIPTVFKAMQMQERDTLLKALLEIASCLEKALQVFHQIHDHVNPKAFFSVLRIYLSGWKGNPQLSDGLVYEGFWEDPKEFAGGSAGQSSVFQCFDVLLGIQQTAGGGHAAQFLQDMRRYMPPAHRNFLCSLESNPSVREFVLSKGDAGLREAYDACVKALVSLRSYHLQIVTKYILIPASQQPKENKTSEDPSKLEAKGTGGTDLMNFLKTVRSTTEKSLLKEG

pIC50: −log10 of the molar value.

Usually pIC50 stands for −log10 of the IC50, conventionally taken in molar units.

This test has as its target IDO1 (Homo sapiens, UniProt P14902). As to the kind of experiment: IDO1 Cellular Assay in HeLa Cells Stimulated with IFNγ. The class given is cell-based. The note with it: HeLa cells stimulated with IFNγ 100 ng/mL, 300 uM L-tryptophan, about 48 hours, fluorescence readout; read-out: HeLa Cell Potency, IC50.
With `Cc1cccc(C2CCC(CCn3nc(C(=O)N4CCC(O)CC4)c4c3CCC4)CC2)c1C` (single isomer, unassigned) [Example 95, (1-(2-(4-(2,3-dimethylphenyl)cyclohexyl)ethyl)-1,4,5,6-tetrahydrocyclopenta[c]pyrazol-3-yl)(4-hydroxypiperidin-1-yl)methanone], the pIC50 was 8.67. Then `Cc1cccnc1O[C@H]1CC[C@@H](CCn2nc(C(=O)N3CCC(OCCO)CC3)c3c2CCC(F)(F)C3)CC1` [Example 90, [5,5-difluoro-1-(2-{cis-4-[(3-methylpyridin-2-yl)oxy]cyclohexyl}ethyl)-4,5,6,7-tetrahydro-1H-indazol-3-yl][4-(2-hydroxyethoxy)piperidin-1-yl]methanone], with 8.75; and `Cc1cccnc1O[C@H]1CC[C@@H](CCn2nc(C(=O)N3CCC(O)CC3)c3c2C[C@H]2C[C@@H]32)CC1` [Example 81, (4-hydroxypiperidin-1-yl)((3bR,4aR)-1-(2-((1s,4S)-4-((3-methylpyridin-2-yl)oxy)cyclohexyl)ethyl)-3b,4,4a,5-tetrahydro-1H-cyclopropa[3,4]cyclopenta[1,2-c]pyrazol-3-yl)methanone], with 8.84; and `CC(=O)NC1CCN(C(=O)c2nn(CC[C@H]3CC[C@@H](Oc4ncccc4C)CC3)cc2CCC(F)(F)F)CC1` [Example 73, N-(1-(1-(2-((1s,4s)-4-((3-methylpyridin-2-yl)oxy)cyclohexyl)ethyl)-4-(3,3,3-trifluoropropyl)-1H-pyrazole-3-carbonyl)piperidin-4-yl)acetamide], with 7.84.

For the compound `CC(=O)NC1CCN(C(=O)c2nn(CC[C@H]3CC[C@@H](Oc4nnccc4C)CC3)c3c2CCC3)CC1` [Example 69, N-(1-(1-(2-((1s,4s)-4-((4-methylpyridazin-3-yl)oxy)cyclohexyl)ethyl)-1,4,5,6-tetrahydrocyclopenta[c]pyrazole-3-carbonyl)piperidin-4-yl)acetamide], the pIC50 was 7.01. For `CC(=O)NC1CCN(C(=O)c2nn(CC[C@H]3CC[C@@H](Oc4ccccc4C(F)(F)F)CC3)c3c2CCC3)CC1` [Example 65, N-(1-(1-(2-((1s,4s)-4-(2-(trifluoromethyl)phenoxy)cyclohexyl)ethyl)-1,4,5,6-tetrahydrocyclopenta[c]pyrazole-3-carbonyl)piperidin-4-yl)acetamide] the value was greater than 9.29; for `COC(Cn1nc(C(=O)N2C[C@@H](C)O[C@@H](C)C2)c2c1CCC2)C1CCN(c2cccc(C)c2C)CC1` (single isomer, unassigned) [Example 45], 5.92. With `CC(=O)NC1CCN(C(=O)c2nn(CCC3CCN(c4cccnc4C)CC3)c3c2CCCC3)CC1` [Example 28, N-[1-[1-[2-[1-(2-methyl-3-pyridyl)-4-piperidyl]ethyl]-4,5,6,7-tetrahydroindazole-3-carbonyl]-4-piperidyl]acetamide], the pIC50 was 8.02. Then `Cc1c(F)ccc(C2CCC(CCn3nc(C(=O)N4CCN(C(=O)CO)CC4)c4c3CCC4)CC2)c1C` (single isomer, unassigned) [Example 50, 1-(4-(1-(2-(4-(4-fluoro-2,3-dimethylphenyl)cyclohexyl)ethyl)-1,4,5,6-tetrahydrocyclopenta[c]pyrazole-3-carbonyl)piperazin-1-yl)-2-hydroxyethan-1-one], with 7.37. On to `CC(=O)NC1CCN(C(=O)c2ccn(CC[C@H]3CC[C@@H](Oc4ncccc4C)CC3)n2)CC1` [Example 72, N-(1-(1-(2-((1s,4s)-4-((3-methylpyridin-2-yl)oxy)cyclohexyl)ethyl)-1H-pyrazole-3-carbonyl)piperidin-4-yl)acetamide], for which the pIC50 was 7.81. Turning to `Cc1cccnc1O[C@H]1CC[C@@H](CCn2nc(C(=O)N3CCC(N)CC3)c3c2C[C@H]2C[C@@H]32)CC1` [Example 88, (4-aminopiperidin-1-yl)[(3bR,4aR)-1-(2-{cis-4-[(3-methylpyridin-2-yl)oxy]cyclohexyl}ethyl)-3b,4,4a,5-tetrahydro-1H-cyclopropa[3,4]cyclopenta[1,2-c]pyrazol-3-yl]methanone], the pIC50 was 8.35.

Consider `CC(=O)NC1CCN(C(=O)c2nn(CC[C@H]3CC[C@@H](Oc4ccccc4C)CC3)c3c2CCC3)CC1` [Example 61, N-(1-(1-(2-((1s,4s)-4-(2-methylphenoxy)cyclohexyl)ethyl)-1,4,5,6-tetrahydrocyclopenta[c]pyrazole-3-carbonyl)piperidin-4-yl)acetamide], for which the pIC50 was 9.24. Turning to `Cc1c(F)ccc(C2CCC(CCn3nc(C(=O)N4CCC(F)(CO)CC4)c4c3CCC4)CC2)c1C` (single isomer, unassigned) [Example 51, (1-(2-(4-(4-fluoro-2,3-dimethylphenyl)cyclohexyl)ethyl)-1,4,5,6-tetrahydrocyclopenta[c]pyrazol-3-yl)(4-fluoro-4-(hydroxymethyl)piperidin-1-yl)methanone], the pIC50 is 7.03.

Turning to `Cc1c(F)ccc(C2CCC(CCn3nc(C(=O)N4CCN(C(=O)CO)CC4)c4c3CCC4)CC2)c1C` (single isomer, unassigned) [Example 49, 1-(4-(1-(2-(4-(4-fluoro-2,3-dimethylphenyl)cyclohexyl)ethyl)-1,4,5,6-tetrahydrocyclopenta[c]pyrazole-3-carbonyl)piperazin-1-yl)-2-hydroxyethan-1-one], the negative-log IC50 (pIC50) is 8.45.

With `CC(=O)NC1CCN(C(=O)c2nn(CCC3CCN(c4nccc(C(F)(F)F)c4F)CC3)c3c2CCCC3)CC1` [Example 35, N-[1-[1-[2-[1-[3-fluoro-4-(trifluoromethyl)-2-pyridyl]-4-piperidyl]ethyl]-4,5,6,7-tetrahydroindazole-3-carbonyl]-4-piperidyl]acetamide], the pIC50 was 8.78.

Consider `CC(=O)NC1CCN(C(=O)c2nn(CCC3CCN(c4cccc(F)c4C)CC3)c3c2CCCC3)CC1` [Example 17, N-[1-[1-[2-[1-(3-fluoro-2-methyl-phenyl)-4-piperidyl]ethyl]-4,5,6,7-tetrahydroindazole-3-carbonyl]-4-piperidyl]acetamide], for which the pIC50 is 8.84. On to `CC(=O)NC1CCN(C(=O)c2nn(CC[C@H]3CC[C@@H](Oc4ncccc4C)CC3)c3c2CCC3)CC1` [Example 62, N-(1-(1-(2-((1s,4s)-4-((3-methylpyridin-2-yl)oxy)cyclohexyl)ethyl)-1,4,5,6-tetrahydrocyclopenta[c]pyrazole-3-carbonyl)piperidin-4-yl)acetamide], for which the pIC50 is 9.16. On to `Cc1cccc(N2CCC(C(F)Cn3nc(C(=O)N4C[C@@H](C)O[C@@H](C)C4)c4c3CCC4)CC2)c1C` (single isomer, unassigned) [Example 48], for which the pIC50 was 8.09. Then `Cc1c(Cl)cccc1N1CCC(CCn2nc(C(=O)N3CCC(O)(CF)CC3)c3c2CCC3)CC1` [Example 15], with 7.50. Then `Cc1cccc(N2CCC(CCn3nc(C(=O)N4CCC(O)CC4)c4c3CCC4)CC2)c1C` [Example 1, (1-(2-(1-(2,3-dimethylphenyl)piperidin-4-yl)ethyl)-1,4,5,6-tetrahydrocyclopenta[c]pyrazol-3-yl)(4-hydroxypiperidin-1-yl)methanone], with 7.91; and `Cc1c(Cl)cccc1N1CCN(CCn2nc(C(=O)N3CCC(O)CC3)c3c2C[C@H]2C[C@@H]32)CC1` [Example 101, ((3bR,4aR)-1-(2-(4-(3-chloro-2-methylphenyl)piperazin-1-yl)ethyl)-3b,4,4a,5-tetrahydro-1H-cyclopropa[3,4]cyclopenta[1,2-c]pyrazol-3-yl)(4-hydroxypiperidin-1-yl)methanone], with 7.38.

With `Cc1c(Cl)cccc1N1CCC(CCn2nc(C(=O)N3CC[C@@H](O)[C@@H](F)C3)c3c2CCC3)CC1` (stereo in doubt) [Example 14, [1-[2-[1-(3-chloro-2-methyl-phenyl)piperidin-1-ium-4-yl]ethyl]-5,6-dihydro-4H-cyclopenta[c]pyrazol-3-yl]-(3-fluoro-4-hydroxy-1-piperidyl)methanone], the pIC50 was 7.53.

For `Cc1cccnc1O[C@H]1CC[C@@H](CCn2nc(C(=O)N3CCC(N)CC3)c3c2CCC(F)(F)C3)CC1` [Example 85, (4-aminopiperidin-1-yl)[5,5-difluoro-1-(2-{cis-4-[(3-methylpyridin-2-yl)oxy]cyclohexyl}ethyl)-4,5,6,7-tetrahydro-1H-indazol-3-yl]methanone], the pIC50 was 7.56.

In the case of `Cc1c(Cl)cccc1N1CCC(CCn2nc(C(=O)N3CCC(O)CC3)c3c2CCC3)CC1` [Example 3, [1-[2-[1-(3-chloro-2-methyl-phenyl)piperidin-1-ium-4-yl]ethyl]-5,6-dihydro-4H-cyclopenta[c]pyrazol-3-yl]-(4-hydroxy-1-piperidyl)methanone], the pIC50 is 7.42.

As to `Cc1cccc(N2CCC(C(O)Cn3nc(C(=O)N4C[C@@H](C)O[C@@H](C)C4)c4c3CCC4)CC2)c1C` (single isomer, unassigned) [Example 44], the pIC50 was 7.87. Take `CC(=O)NC1CCN(C(=O)c2nn(CCC3CCN(c4cccc(C(F)(F)F)c4C)CC3)c3c2CCCC3)CC1` [Example 22, N-[1-[1-[2-[1-[2-methyl-3-(trifluoromethyl)phenyl]-4-piperidyl]ethyl]-4,5,6,7-tetrahydroindazole-3-carbonyl]-4-piperidyl]acetamide]: the pIC50 was 8.74. Then `O=C(c1nn(CCC2CCN(c3cccc(C(F)(F)F)c3)CC2)c2c1CCC2)N1CCC(O)CC1` [Example 4, (4-hydroxy-1-piperidyl)-[1-[2-[1-[3-(trifluoromethyl)phenyl]-4-piperidyl]ethyl]-5,6-dihydro-4H-cyclopenta[c]pyrazol-3-yl]methanone], with 7.17; and `CC(=O)NC1CCN(C(=O)c2nn(C[C@@H]3C[C@@H](Oc4ccc(Cl)cn4)CCO3)c3c2CC(F)(F)CC3)CC1` [Example 77, 6-{3-[4-(acetylamino)piperidine-1-carbonyl]-5,5-difluoro-4,5,6,7-tetrahydro-1H-indazol-1-yl}-1,5-anhydro-3-O-(5-chloropyridin-2-yl)-2,4,6-trideoxy-D-erythro-hexitol], with 8.30.
